Test results taken from patent US20180258175A1 (ABLEXIS, published 2018).

Target: T1, native CD115 on OCI-AML5 cells (UniProt P07333)
T1 construct: whole, on cells; cell line endogenous receptor; also called CD115 expressed on OCI-AML5 cells; CD115 expressing AML5 cells
Assay: FACS, supernatant on OCI-AML5 cells

binding result: binds
B1: CCL-238A (antibody, V domains shown)
VH: QVQLVQSGAEVKKPGASVKVSCKASGYTFTGYYMHWVRQAPGQGLEWMVWINPNSGGTNYAQKFQGRVTMTRDTSISTAYMELSRLRSDDTAVYYCARGRLTFFDYWGQGTLVTVSS
VL: not shown
notes: AlivaMab chimeric IgG, human lambda LC
